Test results published in patent publication US20260248894A1, “COMBINATION THERAPY FOR PRETERM INFANTS” (Oak Hill Bio Ltd, priority 2022, published 2026).

By UniProt entry, the sequences of proteins in these tests, tags left out. Residues count along the entry.
UniProt P05019, 49-118 limits assumed, stated change not applied: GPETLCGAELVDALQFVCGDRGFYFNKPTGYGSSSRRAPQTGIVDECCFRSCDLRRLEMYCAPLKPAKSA
UniProt P17936, 28-291, stated change not applied: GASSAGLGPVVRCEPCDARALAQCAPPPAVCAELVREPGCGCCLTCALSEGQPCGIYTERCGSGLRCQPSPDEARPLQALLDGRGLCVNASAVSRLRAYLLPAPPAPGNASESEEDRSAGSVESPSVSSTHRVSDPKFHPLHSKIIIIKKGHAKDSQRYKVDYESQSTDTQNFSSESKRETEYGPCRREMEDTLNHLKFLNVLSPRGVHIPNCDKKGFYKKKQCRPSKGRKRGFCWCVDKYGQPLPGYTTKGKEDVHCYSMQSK

Target: T1, rhIGF-1/rhIGFBP-3 drug product (Homo sapiens, UniProt P05019+P17936, DEL119-195)
T1 construct: purchased Takeda, Lexington, MA, USA
Assay: In vitro physical compatibility of test medications mixed with rhIGF-1/rhIGFBP-3 (visual observation, OD320, pH, osmolality)
Assay type: physicochemical
Set-up: key to Physical compatibility: Yes: Test medications were considered physically compatible with rhIGF-1/rhIGFBP-3 if there was no observed change in color, precipitation, turbidity, or gas evolution, or if there was no clinically relevant change in osmolality or pH

For Gentamicin, the “physical compatibility with rhIGF-1/rhIGFBP-3” value (conditions and doses tested) was “physical compatibility was established”, the osmolality decrease (highest dose of 5 mg/kg/30 min) was “Osmolality decrease of ~74% was observed” and the Physical compatibility (mixed with rhIGF-1/rhIGFBP-3 drug product at representative clinical doses, room temperature) was “Yes”.
